Earlier results as cited in patent US20140066523A1, “Drug Delivery Compositions And Methods Of Use” (ABYRX, Inc., priority 2011, published 2014).

Conditions: from the literature (Jandacek 1991)

Q: For Calcium Laurate, which “Solubility of Solid in Oleic Acid @ 40° C.” value is on record?
A: 22.8%
